# Values of other authors, collected in patent US5776927A, “Methionine sulfone and S-substituted cysteine sulfone derivatives as enzyme inhibitors” (Corvas International, Inc., priority 1994, dated 1998).
# pKi: −log10 of the molar value.
# Biological target: human alphathrombin
# Settings: literature values (footnotes c, d of Table 4); cited from earlier work
compound,measurement,value
"CC1CNc2c(cccc2S(=O)(=O)N[C@@H](CCCNC(=N)N)C(=O)N2CC[C@@H](C)C[C@@H]2C(=O)O)C1 (stereo partly drawn) [Argatroban, 2R,4R-4-methyl-1-[N-2-(3-methyl-1,2,3,4-tetrahydro-8-quinolinesulfonyl)-L-argininal]-2-piperdinecarboxylic acid]",pKi,7.72
